The chains behind the UniProt entries cited, without tags or fusion partners.
UniProt Q9R0C9, whole entry: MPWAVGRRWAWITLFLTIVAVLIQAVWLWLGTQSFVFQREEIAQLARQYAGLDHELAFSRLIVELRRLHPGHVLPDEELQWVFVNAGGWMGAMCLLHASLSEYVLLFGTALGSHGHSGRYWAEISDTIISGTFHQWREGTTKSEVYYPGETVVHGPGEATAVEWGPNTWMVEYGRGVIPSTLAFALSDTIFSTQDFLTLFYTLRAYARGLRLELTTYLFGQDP

In ChEMBL document CHEMBL4480394, “Benzimidazolone-based selective σ2 receptor ligands: Synthesis and pharmacological evaluation” (Eur J Med Chem, 2019):

Columns and labels:
[1] = biological target: Sigma non-opioid intracellular receptor 1 (Rattus norvegicus, UniProt Q9R0C9); test: Displacement of [3H](+)-pentazocine from sigma1 receptor in rat brain membranes after 120 mins by radioligand binding assay; format: cell membranes
Rattus norvegicus = species: Rattus norvegicus; test: Selectivity ratio of Ki for sigma1 receptor in rat brain membranes to Ki for sigma2 receptor in rat brain membranes; format: cell membranes

Q: Which Ki [1] does the source give for `Cn1c(=O)n(CCCCN2CCN(c3ccc(F)cc3)CC2)c2ccccc21` here?
A: 366 nM

Q: How did the Ratio Ki (Rattus norvegicus) turn out when `O=c1[nH]c2ccccc2n1CCCCN1CCN(c2ccc(F)cc2)CC1` was run?
A: 7.8
